Results reported in US20080075696A1, “Treatment Of Hepatitis C In The Asian Population With Interferon-Beta” (priority 2004, published 2008).
Like-named read-outs stand apart in the source and are kept apart here.

Experiments:
[1] = system: Vesicular Stomatitis virus; assay type: cell-based
[2] = human, in vivo
[3] = system: alanine aminotransferase (ALT); test: Phase III trial in Asian patients with chronic hepatitis C: ALT normalisation
[4] = system: hepatitis C virus (HCV); test: Phase III randomized placebo-controlled trial in Asian patients with chronic hepatitis C: HCV RNA response (viral clearance, EVR, SVR)
[5] = system: ALT; conditions: acute HCV infection (Omata 1991); controls one of 14; cited from earlier work
[6] = system: HCV; conditions: cited from earlier work
[7] = 44 mcg sc tiw, 12 weeks, Asian IFN-alpha-naïve chronic hepatitis C patients
[8] = All subjects, Full Analysis Set
[9] = Baseline HCV RNA: High viral load, Full Analysis Set
[10] = Baseline HCV RNA: Low viral load, Full Analysis Set
[11] = Genotype 2 or 3, Full Analysis Set
[12] = Per Protocol Set (109 subjects)

IFN-beta-1a: Rebif, recombinant human interferon beta-1a, purified 166 amino acid glycoprotein produced in Chinese Hamster Ovary cells
antiviral activity contained in Rebif 44 mcg ([1]; 44 mcg, same bioassay): approximately 12 MIU | specific activity (antiviral activity) ([1]; reference standard calibrated against WHO natural interferon beta standard, WISH cells, Vesicular Stomatitis virus): approximately 270 million international units (M | Number of subjects with at least one adverse event [2]: 123 (96.1%) subjects (%) | Number of subjects with at least one adverse event considered probably or possibly related to study medication [2]: 123 (96.1%) subjects (%) | Number of subjects with at least one adverse event leading to discontinuation of study medication [2]: 3 (2.3%) subjects (%) | Number of subjects with at least one serious adverse event [2]: 0 subjects | mean values for haemoglobin, WBC and neutrophils (absolute) [2]: remained within the normal reference range at all times | rate of ALT normalization by week 12 [3, 7]: 65.1% | ALT normalisation at Week 12 achieved: No ([3]; 44 mcg sc tiw, N = 128): 44 (34.9%) subjects (%) | ALT normalisation at Week 12 achieved: Yes ([3]; 44 mcg sc tiw, N = 128): 82 (65.1%) subjects (%) | Odds ratio for ALT normalisation, IFN-beta-1a vs placebo ([3]; Week 12): 20.24 | rate of EVR by week 12 [4, 7]: 92.2% | rate of complete viral clearance by week 12 [4, 7]: 74.2% | percentage of subjects with SVR at Week 48 [4, 8]: (26.6%) | subjects with SVR at Week 48 (subjects with SVR/subjects) [4, 8]: 34/128 | percentage of subjects with SVR at Week 48 [4, 9]: (12.9%) | subjects with SVR at Week 48 (subjects with SVR/subjects) [4, 9]: 11/85 | percentage of subjects with SVR at Week 48 [4, 10]: (53.5%) | subjects with SVR at Week 48 (subjects with SVR/subjects) [4, 10]: 23/43 | SVR at Week 48 achieved: No ([4]; Full Analysis Set (128 subjects)): 94 (73.4%) subjects (%) | SVR at Week 48 achieved: Yes ([4]; Full Analysis Set (128 subjects), 24 weeks treatment, 24 weeks observation): 34 (26.6%) subjects (%) | proportion of subjects with SVR ([4]; Full Analysis Set, absence of detectable HCV RNA in serum at Week 24 and Week 48): 26.6% | SVR at Week 48 achieved: No (Table 9) ([4]; Full Analysis Set, monotherapy 128 patients, combination with ribavirin 127 patients): 94 (73.4%) patients (%) | SVR at Week 48 achieved: Yes (Table 9) ([4]; Full Analysis Set, monotherapy 128 patients, combination with ribavirin 127 patients, 24 weeks treatment, 24 weeks observation, draft statistical report): 34 (26.6%) patients (%) | percentage of subjects with SVR at Week 48 ([4]; Genotype 1, Full Analysis Set): (22.4%) | subjects with SVR at Week 48 (subjects with SVR/subjects) ([4]; Genotype 1, Full Analysis Set): 19/85 | percentage of subjects with SVR at Week 48 [4, 11]: (39.4%) | subjects with SVR at Week 48 (subjects with SVR/subjects) [4, 11]: 13/33 | percentage of subjects with SVR at Week 48 ([4]; Genotype 4, Full Analysis Set): (100.0%) | subjects with SVR at Week 48 (subjects with SVR/subjects) ([4]; Genotype 4, Full Analysis Set): 1/1 | percentage of subjects with SVR at Week 48 ([4]; Genotype 6, Full Analysis Set): (12.5%) | subjects with SVR at Week 48 (subjects with SVR/subjects) ([4]; Genotype 6, Full Analysis Set): 1/8 | subjects with SVR at Week 48 (subjects with SVR/subjects) ([4]; Genotype - other, Full Analysis Set): 0/1 | Complete viral clearance or ≧2 log decrease in HCV RNA (%) ([4]; HCV Genotype 1, week 12): (89.3%) | Complete viral clearance or ≧2 log decrease in HCV RNA (%) ([4]; HCV Genotype 2, week 12): (100.0%) | Complete viral clearance or ≧2 log decrease in HCV RNA (%) ([4]; HCV Genotype 3, week 12): (88.9%) | Complete viral clearance or ≧2 log decrease in HCV RNA (%) ([4]; HCV Genotype 4, week 12): (100.0%) | Complete viral clearance or ≧2 log decrease in HCV RNA (%) ([4]; HCV Genotype 6, week 12): (100.0%) | Complete viral clearance or ≧2 log decrease in HCV RNA (%) ([4]; Others (genotype), week 12): (100.0%) | SVR at Week 48 achieved: No [4, 12]: 81 (74.3%) subjects (%) | SVR at Week 48 achieved: Yes [4, 12]: 28 (25.7%) subjects (%) | Odds ratio for EVR, IFN-beta-1a vs placebo ([4]; Week 12): 608.09

IFN-beta: human fibroblast interferon, native or recombinant, as used in cited literature studies
mean values for platelets [2]: fell below the normal reference range reaching its lowest value at Week 4 before climbing back within a normal range by Week 20 of treatment | patients achieving sustained normalization of ALT at one year [5]: 7 of 11 | clinical efficacy ([6]; intramuscular, 3 MU three times per week, HCV patients of non-Asian race (Perez 1995)): Very poor clinical efficacy | clinical efficacy ([6]; subcutaneous, 9 or 12 MU, non-Asian (Caucasian) HCV patients (Habersetzer 2000)): has shown efficacy at least in a group of patients
